The values that follow come from paper PMC8630191.

In this test the target is 3xFLAG-tagged PP2Acβ ΔL mutant (Leu 309 deleted) (human) (UniProt P62714). Briefly: affinity purification with mass spectrometry; 3xFLAG-tagged catalytic subunit (WT or ΔL) transfected in FreeStyle 293F cells; FLAG M2 affinity gel, 3 h at 4 °C; lysis and wash buffer 50 mM Tris pH 7.5, 500 mM NaCl, 0.5% Triton X-100; eluted with 3XFLAG peptide; label-free quantitative LC-MS/MS on unique peptides, three replicates.

With “B56γ, PP2A regulatory subunit (from UniProt Q13362 1-524) (natural protein)”, the fold reduction of binding, ΔL against WT worked out at 2 fold.
